## scFv variants of Ab-14 (heavy chain) against a SARS-CoV-2 spike peptide

Antigen: PDVDLGDISGINAS, a 14-residue peptide of the SARS-CoV-2 spike HR2 region.

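The variants were designed computationally from a first round of random CDR variants and then made and measured. Their group label is 14H_GPLM_Gen (GPLM: also part of the Gaussian process libraries; Gen: genetic algorithm; a sequence that several methods proposed may carry one label only). The assay is AlphaSeq: two haploid yeast populations carry antibody and antigen on their surface. Binding brings cells together so that they mate, and sequencing counts the barcode pairs among the diploids. A regression on co-assayed BCL2-family reference pairs converts the normalised counts of each replicate to an apparent Kd. Mating was done six times.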

Parent: Ab-14, a human scFv built as VH, a (GGGGS)3 linker, VL. Only the CDRs of the heavy chain vary.
VH: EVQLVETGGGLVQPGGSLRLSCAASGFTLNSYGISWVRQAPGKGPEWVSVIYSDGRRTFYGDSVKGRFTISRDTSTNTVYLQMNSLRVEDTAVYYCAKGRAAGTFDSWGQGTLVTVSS
VL: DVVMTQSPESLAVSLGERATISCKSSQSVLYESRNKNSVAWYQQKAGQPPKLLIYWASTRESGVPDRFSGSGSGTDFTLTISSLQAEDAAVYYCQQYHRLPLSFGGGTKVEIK

Substitutions are numbered in sequence along the VH above, starting at 1 (not Kabat). The read-out is the apparent dissociation constant on a log10 scale (nM): the lower, the stronger. Averages over replicates are reported, and they cover detected replicates only. "ND" marks a missing value. The strain was present, yet no cells mated with the target were sequenced in that replicate, which points to weak or no binding. As a blank, each scFv also met three strains without target: over all heavy chain designs, 1% of these pairings were detected, typically at 2.08 and seldom below 0.84. Also given: how often the same scFv was detected with the empty control strains, with their mean in brackets. The authors averaged sequences with at least three values out of six and counted those with two or fewer as poor binders. A sequence measured in both rounds can read differently, since the two assays cover different ranges.

changes	log10 Kd, replicates	mean log10 Kd (nM)	control signals
T28S N30E A101T	0.55 / -0.09 / -0.10 / -0.27 / -0.02 / 0.20	0.05	0/18
T28S S31E R100K S107T	ND / ND / ND / ND / ND / ND	ND	1/18 (1.55)
T28N S31E R100K	-0.17 / 0.11 / -0.13 / -0.03 / 0.05 / 0.37	0.03	0/18
G61S R100S A101V	0.53 / 0.01 / -0.11 / -0.14 / 0.46 / 0.55	0.22	0/18
G61K R100Q A101E	1.64 / 0.46 / 0.27 / 0.62 / 0.29 / 0.63	0.65	1/18 (1.97)
T28W G61A R100Q S107L	ND / 1.16 / ND / 0.88 / ND / ND	1.02	0/18
N30K S53A R100K	0.34 / 0.41 / 0.98 / 1.12 / 1.14 / 1.38	0.90	0/18
T28S S63Q R100Q	1.56 / 1.42 / 1.19 / 1.08 / 0.69 / 1.89	1.30	0/18
T28S S31M G61A R100Q	1.02 / 1.22 / 0.99 / 0.26 / 0.61 / 0.58	0.78	0/18
T28S A101T S107A	1.17 / 0.01 / 1.50 / 0.65 / 1.28 / 0.78	0.90	0/18
T28D A101C	ND / 2.16 / 2.89 / ND / ND / 1.85	2.30	0/18
A101I S107T	1.95 / 1.62 / 0.93 / 0.95 / 0.97 / 1.56	1.33	0/18
T28S G61A A101Y	1.56 / 0.62 / 0.85 / 0.40 / 0.76 / 1.91	1.02	1/18 (2.27)
T28S S31E R56K A101N	-0.41 / -0.64 / -0.69 / -0.60 / -0.13 / -0.54	-0.50	0/18
S53A R100K A101V	0.20 / 0.71 / 0.73 / -0.35 / -0.04 / -0.19	0.18	0/18
S31E R100K S107K	0.22 / -0.01 / -0.09 / 0.14 / 0.40 / 0.17	0.14	0/18
T28V S31E A101Q	ND / ND / ND / ND / ND / ND	ND	0/18
S53A R100E S107K	-0.60 / -0.59 / -0.56 / -0.69 / -1.19 / -0.68	-0.72	0/18
T28S F59M R100Q	ND / ND / ND / ND / 1.97 / ND	1.97	0/18
T28S S53A S107L	0.25 / 0.08 / 0.19 / 0.03 / 0.24 / 0.27	0.18	1/18 (1.29)
T28S S31E G61I R100Q S107K	ND / ND / ND / ND / ND / ND	ND	0/18
T28S A101V S107N	1.04 / 0.86 / 0.36 / 0.86 / 0.49 / 0.75	0.73	0/18
T28S R100T A101T	0.32 / 0.87 / 0.05 / 0.37 / 0.44 / 0.54	0.43	0/18
T28D G61A A101M	-0.18 / 0.00 / -0.12 / -0.42 / -0.05 / -0.34	-0.18	1/18 (1.88)
A101T D106E S107V	ND / ND / ND / ND / ND / ND	ND	0/18
T28D A101Q	0.10 / 0.59 / 0.14 / 0.64 / 0.45 / 0.19	0.35	0/18
T28S R100Q A101T S107N	-0.10 / -0.36 / -0.38 / -0.46 / -0.13 / 1.16	-0.05	0/18
T28N G61A S63A R100Q	2.42 / 2.85 / 2.10 / 2.15 / 2.16 / 2.26	2.32	2/18 (2.73)
S53A A101V S107I	0.16 / 0.99 / 0.34 / 1.05 / 0.44 / 0.38	0.56	0/18
S31E R56Q A101T S107K	0.11 / 0.20 / 0.47 / 0.22 / 0.03 / 0.17	0.20	0/18
T28S S31N A101H	1.62 / 1.37 / 2.16 / 1.51 / 1.65 / 1.45	1.63	1/18 (3.52)
T28E R100E	1.08 / ND / 0.46 / ND / 1.88 / 1.15	1.14	0/18
T28S R100K A101N	0.42 / 0.63 / 0.54 / 1.46 / 1.07 / 0.52	0.77	0/18
T28S G61T R100W A101T	0.17 / 0.34 / 0.01 / 0.76 / 0.34 / 0.87	0.41	2/18 (1.35)
S31D G61I R100N	0.25 / 0.25 / 0.09 / -0.22 / 0.31 / 0.17	0.14	2/18 (2.86)
S53A S63D R100E	0.20 / -0.46 / -0.53 / -0.27 / -0.27 / 0.21	-0.19	0/18
T28S G61S S63R A101T	1.20 / 0.68 / 1.39 / 1.36 / 0.50 / 1.23	1.06	1/18 (2.17)
T28S A101I S107T	0.46 / 0.93 / 1.00 / 0.29 / 0.66 / 0.55	0.65	0/18
T28E G61A R100Q S107A	-0.16 / -0.07 / 0.47 / 0.70 / -0.28 / -0.06	0.10	0/18
T28S R100E A101V	0.63 / 0.05 / 0.04 / -0.02 / -0.15 / 0.14	0.11	1/18 (2.04)
T28H S63Q R100Q A101T	ND / ND / ND / ND / ND / ND	ND	0/18
T28S G61V R100Q A101T	0.88 / 0.69 / 0.83 / 0.84 / 0.43 / 0.70	0.73	3/18 (2.71)
T28S R100E S107R	0.53 / 0.74 / 0.14 / 1.09 / 0.10 / 0.46	0.51	0/18
T28S G61A R100Q A101V	-0.43 / 0.12 / -0.25 / 0.06 / 0.12 / 0.12	-0.04	0/18
T28S S63H R100E	ND / 0.81 / 0.37 / 0.72 / 0.85 / 1.22	0.79	0/18
T28S S31E A101T S107F	0.33 / -0.10 / 0.77 / 0.41 / -0.09 / 0.07	0.23	0/18
T28S G61D R100H	0.60 / 0.36 / 0.45 / 0.48 / -0.03 / 0.80	0.44	0/18
T28D G61A R100Q	0.83 / -0.32 / 0.53 / ND / 0.05 / 1.05	0.43	0/18
F59A A101T	2.16 / 1.61 / 1.89 / 0.15 / 1.12 / 2.05	1.50	0/18
T28Y R56K A101T	1.32 / ND / ND / ND / 1.65 / 2.07	1.68	0/18

Data: MIT Lincoln Laboratory AlphaSeq set, Li et al. 2023, doi:10.1038/s41467-023-39022-2, as distributed in FLAb.